Assay results as given in US8709419B2, “Combination therapy” (Hoffmann-La Roche, Inc., priority 2010, dated 2014).

Tests used:
[1] = test system: Human HT-29 Cell Xenografts
[2] = Toxicity in Example 6 study: body weight change, mortality, gross observation
[3] = test system: Human HT-29 Cell Xenografts; assay: HT-29 xenograft mice, Example 5 (Compound I / cetuximab, treatment day 12-34): tumor growth inhibition, regression, survival; type: in vivo; conditions: Ex.5: cetuximab 40 mg/kg 2x/wk ip
Method: Differences between groups were considered to be significant when the probability value (p) was ≦0.05.
For survival assessment, the percent of increased life space (ILS) was calculated as: 100×[(median survival day of treated group−median survival day of control group)/median survival day of control group]. Median survival was determined utilizing Kaplan Meier survival analysis. […] Differences between groups were considered significant when the probability value (p) was ≦0.05.
Tumor measurements were taken once or twice per week. All animals were individually followed throughout the experiment.

[4] = Toxicity in Example 5 study: body weight change, mortality, gross observation
[5] = Ex.6: cetuximab 40 mg/kg 2x/wk ip
[6] = Ex.6: cetuximab 40 mg/kg 2x/wk ip, animals of 10 per group
[7] = Ex.5: cetuximab 40 mg/kg 2x/wk ip

In the case of “Cetuximab: monoclonal antibody that targets EGFR, sold as Erbitux by ImClone Systems”, the “tumor regression (partial or complete)” value ([1]; Ex.6: Compound I 25 mg/kg bid, cetuximab 40 mg/kg 2x/wk, irinotecan HCl 40 mg/kg q4d x5 monotherapies, cetuximab + irinotecan combination) is reported as “no regressions”, the “% ILS” value [1, 5] is reported as 27% and the “% Inhibition end of study Day: 32” value [1, 5] is reported as 58%. For the same substance, the “% T/C end of study Day: 32” value [1, 5] was 42%, the “% Tumor Growth Inhibition” value [1, 5] was 58% and the “Mean Tumor Volume (mm^3) End Study” value [1, 5] was 885.00 mm^3. For the same substance, the “Complete Regression” value [1, 6] was 0, the “Partial Regression” value [1, 6] was 0 and the “50% Treatment Days” value ([1]; Ex.6: cetuximab 40 mg/kg 2x/wk ip, median survival) was 38 days. The “# animals ≧ 20% BWL” value [2, 5] was 0, the “% Change in Body Weight at end of Study Day 32” value [2, 5] was 4.0% and the “Max % Weight Gain” value [2, 5] was 4.0%. For the same substance, the Mortality [2, 5] was 0, the “EGFR inhibitor related skin rash” value ([2]; Ex.6: cetuximab treated mice, self-limiting under continuous treatment) was “skin rash was common” and the “% ILS” value [3] was 16%. The “% Inhibition end of study Day: 34” value [3] was 51%, the “% T/C end of study Day: 34” value [3] was 49% and the “% Tumor Growth Inhibition” value [3] was 51%. The “Mean Tumor Volume (mm^3) End Study” value [3] was 1052.49 mm^3, the “Complete Regression” value ([3]; animals of 10 per group) was 0 and the “Partial Regression” value ([3]; animals of 10 per group) was 0. For the same substance, the “50% Treatment Days” value ([3]; median survival) was 37 days, the “# animals ≧ 20% BWL” value [4, 7] was 0 and the “% Change in Body Weight at end of Study Day 34” value [4, 7] was 7.2%. For the same substance, the “Max % Weight Gain” value [4, 7] was 8.9%, the “Max % Weight Loss” value [4, 7] was 3.7% and the Mortality [4, 7] was 0. The “EGFR inhibitor related skin rash” value ([4]; Ex.5: cetuximab treated mice, self-limiting under continuous treatment) was “skin rash was common”.

Where two headings read alike, the source gives them in different places.
